This note sets out measurements from patent publication US20070066574A1, “MYO-INOSITOL HEXAPHOSPHATE FOR TOPICAL USE” (priority 2003, published 2007).

This series can be described thus: Plasmatic and urinary phytate after topical administration (absorption by the skin). The note with it: administered topically, passing into the bloodstream.

Turning to `O=P(O)(O)O[C@H]1[C@H](OP(=O)(O)O)[C@@H](OP(=O)(O)O)[C@H](OP(=O)(O)O)[C@@H](OP(=O)(O)O)[C@H]1OP(=O)(O)O` [phytate, myo-inositol hexaphosphate], the “absorption by the skin on topical administration” value is listed as “can be absorbed by the skin”.
